Source: article PMC7293934 (Neuropharmacology, 2020)
Values joined by “and” are separate entries in the source; they are usually repeats but may differ in a detail not shown here. Identical values can stand only once.

Sequences of proteins named here, by UniProt entry; tags and fusion partners are left off. Residues count along the entry.
UniProt Q00961, 20-1237: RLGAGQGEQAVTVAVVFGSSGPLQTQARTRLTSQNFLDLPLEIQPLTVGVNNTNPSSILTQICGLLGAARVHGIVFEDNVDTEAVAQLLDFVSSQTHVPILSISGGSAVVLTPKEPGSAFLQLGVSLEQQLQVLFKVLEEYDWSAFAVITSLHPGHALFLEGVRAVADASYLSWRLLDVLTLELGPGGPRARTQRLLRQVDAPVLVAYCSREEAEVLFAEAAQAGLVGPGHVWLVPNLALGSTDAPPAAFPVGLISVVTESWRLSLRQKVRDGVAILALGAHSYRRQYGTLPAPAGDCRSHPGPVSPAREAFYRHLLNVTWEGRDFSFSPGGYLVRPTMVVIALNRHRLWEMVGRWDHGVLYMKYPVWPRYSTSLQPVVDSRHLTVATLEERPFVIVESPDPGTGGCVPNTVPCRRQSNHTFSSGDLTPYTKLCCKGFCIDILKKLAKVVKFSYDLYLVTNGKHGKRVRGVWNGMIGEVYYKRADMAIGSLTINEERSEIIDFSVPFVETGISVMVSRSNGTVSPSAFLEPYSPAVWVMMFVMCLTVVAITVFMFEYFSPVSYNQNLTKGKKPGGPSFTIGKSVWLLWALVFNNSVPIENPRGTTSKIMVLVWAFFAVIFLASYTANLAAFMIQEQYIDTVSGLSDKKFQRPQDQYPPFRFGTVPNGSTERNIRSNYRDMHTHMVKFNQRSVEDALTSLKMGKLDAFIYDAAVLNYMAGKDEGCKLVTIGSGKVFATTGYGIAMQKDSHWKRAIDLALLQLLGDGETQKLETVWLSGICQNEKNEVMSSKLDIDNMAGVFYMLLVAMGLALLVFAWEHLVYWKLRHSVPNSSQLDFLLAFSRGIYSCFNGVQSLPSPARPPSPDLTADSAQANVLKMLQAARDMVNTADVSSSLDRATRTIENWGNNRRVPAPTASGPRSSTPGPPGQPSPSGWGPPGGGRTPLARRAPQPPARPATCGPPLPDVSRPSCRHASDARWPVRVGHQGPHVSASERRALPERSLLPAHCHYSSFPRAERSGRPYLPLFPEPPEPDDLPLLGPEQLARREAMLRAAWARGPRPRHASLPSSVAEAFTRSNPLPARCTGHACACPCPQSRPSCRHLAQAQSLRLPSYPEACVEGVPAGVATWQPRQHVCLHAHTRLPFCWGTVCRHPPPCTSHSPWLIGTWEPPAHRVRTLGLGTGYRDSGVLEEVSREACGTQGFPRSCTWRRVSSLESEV
UniProt Q62645, 28-1323: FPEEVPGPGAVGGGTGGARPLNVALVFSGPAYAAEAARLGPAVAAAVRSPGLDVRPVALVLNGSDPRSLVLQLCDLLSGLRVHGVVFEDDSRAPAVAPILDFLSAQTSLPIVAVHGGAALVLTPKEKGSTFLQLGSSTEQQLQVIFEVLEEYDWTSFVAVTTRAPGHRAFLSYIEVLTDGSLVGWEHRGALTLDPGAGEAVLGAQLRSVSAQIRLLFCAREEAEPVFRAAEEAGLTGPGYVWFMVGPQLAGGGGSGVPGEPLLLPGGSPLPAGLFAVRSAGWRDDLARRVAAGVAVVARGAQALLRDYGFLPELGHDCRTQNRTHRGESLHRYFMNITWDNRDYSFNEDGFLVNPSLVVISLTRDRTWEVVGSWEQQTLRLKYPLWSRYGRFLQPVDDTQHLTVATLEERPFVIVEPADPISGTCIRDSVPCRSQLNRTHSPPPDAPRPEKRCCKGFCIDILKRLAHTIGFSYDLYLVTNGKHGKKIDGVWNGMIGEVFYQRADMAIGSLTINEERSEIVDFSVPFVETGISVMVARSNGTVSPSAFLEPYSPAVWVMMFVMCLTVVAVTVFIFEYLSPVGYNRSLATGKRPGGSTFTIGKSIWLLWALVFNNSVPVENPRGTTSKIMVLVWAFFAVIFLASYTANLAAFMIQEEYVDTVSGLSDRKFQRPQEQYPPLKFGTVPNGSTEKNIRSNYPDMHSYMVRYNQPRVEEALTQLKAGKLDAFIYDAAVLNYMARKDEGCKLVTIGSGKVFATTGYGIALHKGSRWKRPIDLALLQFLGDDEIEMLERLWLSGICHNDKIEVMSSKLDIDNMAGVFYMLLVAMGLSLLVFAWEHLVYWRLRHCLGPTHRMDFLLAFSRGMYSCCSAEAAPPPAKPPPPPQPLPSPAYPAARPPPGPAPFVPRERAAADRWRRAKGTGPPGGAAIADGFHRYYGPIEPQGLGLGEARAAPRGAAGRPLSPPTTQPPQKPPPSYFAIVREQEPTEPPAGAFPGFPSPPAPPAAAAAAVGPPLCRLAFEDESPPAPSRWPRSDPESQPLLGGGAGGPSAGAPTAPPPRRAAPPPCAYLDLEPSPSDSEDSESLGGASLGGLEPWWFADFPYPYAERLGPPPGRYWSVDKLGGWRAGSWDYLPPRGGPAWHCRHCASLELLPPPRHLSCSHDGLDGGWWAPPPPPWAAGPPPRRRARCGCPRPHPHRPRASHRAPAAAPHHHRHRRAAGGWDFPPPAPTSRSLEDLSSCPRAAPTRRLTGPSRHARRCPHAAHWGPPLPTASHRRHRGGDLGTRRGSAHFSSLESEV

Tests used:
GluN1/2C = GluN1/2C (Rattus norvegicus, UniProt P35439+Q00961); format: cell-based; details: control (no modulator); continuous 100 μM glutamate
GluN1/2D = GluN1/2D (Rattus norvegicus, UniProt P35439+Q62645); format: cell-based; details: control (no modulator); continuous 100 μM glutamate

## NCC(=O)O [glycine, reference compound]
GluN1/2C
  nH (glycine): 1.6
GluN1/2D
  nH (glycine): 1.5 and 1.8
